Literature values as cited in US20080102121A1, “COMPOSITIONS COMPRISING NANOPARTICULATE MELOXICAM AND CONTROLLED RELEASE HYDROCODONE” (Elan Pharma International Limited, priority 1998, published 2008).

Columns and labels:
[1] = cited from earlier work
COX-2/COX-1 = details: cited from earlier work

For “4-hydroxy-2-methyl-N-(5-methyl-2-thiazolyl)-2-H-1,2-benzothiazine-3-carboxamide 1,1-dioxide [Meloxicam]”, the solubility in methanol ([1]; methanol) is given as “very slightly soluble”, the solubility in water ([1]; water) is given as “practically insoluble” and the COX-2/COX-1 inhibition ratio (COX-2/COX-1) is given as 0.09.
